Experimental findings from ChEMBL document CHEMBL3621148, “Structure-Based Design of Human TLR8-Specific Agonists with Augmented Potency and Adjuvanticity” (J Med Chem, 2015) are described below.

SMILES strings stand for the structures. Activity calls are given as the source filed them. No cut-off for these calls is given here.

One test has as its target T1, Toll-like receptor 8 (Homo sapiens, UniProt Q9NR97).
T1 sequence (Q9NR97 whole entry): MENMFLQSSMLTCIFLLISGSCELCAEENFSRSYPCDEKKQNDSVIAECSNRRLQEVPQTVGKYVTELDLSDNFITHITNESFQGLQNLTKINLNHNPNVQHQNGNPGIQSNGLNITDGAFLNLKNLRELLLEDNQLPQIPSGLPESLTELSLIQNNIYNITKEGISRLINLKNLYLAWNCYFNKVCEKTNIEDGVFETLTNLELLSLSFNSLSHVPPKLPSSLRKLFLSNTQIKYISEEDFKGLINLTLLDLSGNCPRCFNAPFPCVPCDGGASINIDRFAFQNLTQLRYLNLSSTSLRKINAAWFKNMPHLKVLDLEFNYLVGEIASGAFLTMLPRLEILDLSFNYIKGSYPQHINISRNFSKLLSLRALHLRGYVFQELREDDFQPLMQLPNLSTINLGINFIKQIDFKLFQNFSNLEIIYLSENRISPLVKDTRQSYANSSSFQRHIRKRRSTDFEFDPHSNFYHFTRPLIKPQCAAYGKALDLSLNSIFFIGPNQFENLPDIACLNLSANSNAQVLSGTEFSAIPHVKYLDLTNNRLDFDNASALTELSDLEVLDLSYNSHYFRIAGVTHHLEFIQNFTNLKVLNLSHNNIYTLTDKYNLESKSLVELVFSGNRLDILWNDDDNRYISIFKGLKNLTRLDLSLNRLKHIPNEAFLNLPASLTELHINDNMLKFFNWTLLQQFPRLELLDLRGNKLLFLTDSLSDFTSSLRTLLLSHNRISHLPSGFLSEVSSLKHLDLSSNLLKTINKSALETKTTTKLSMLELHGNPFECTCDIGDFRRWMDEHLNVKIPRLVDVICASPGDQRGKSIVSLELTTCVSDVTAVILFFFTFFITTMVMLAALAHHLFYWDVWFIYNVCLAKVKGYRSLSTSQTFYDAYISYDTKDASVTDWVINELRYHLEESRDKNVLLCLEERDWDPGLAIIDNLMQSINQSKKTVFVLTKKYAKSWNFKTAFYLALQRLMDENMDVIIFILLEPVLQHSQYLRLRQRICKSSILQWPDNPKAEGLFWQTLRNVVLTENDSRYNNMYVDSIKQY

The target of test [1] is T2, Toll-like receptor 8 (Homo sapiens) (UniProt Q9NR97).
T2 sequence (whole entry): T1 sequence (Q9NR97 whole entry)
Kind of test: Agonist activity at TLR8 in human PBMC assessed as induction of IFN-gamma after 12 hrs by cytokine/chemokine bead array assay.

For test [2], the target named is T2, Toll-like receptor 8 (Homo sapiens). Nature of the test: Agonist activity at TLR8 in human PBMC assessed as induction of IL-12p40 after 12 hrs by cytokine/chemokine bead array assay.
Test [3] has the same target. Kind of test: Agonist activity at TLR8 in human whole blood assessed as up regulation of CD80 in CD 14+ monocytes after 16 hrs by eight-color flow cytometry.
The test system of a further test is Oryctolagus cuniculus. Nature of the test: Adjuvanticity activity in New Zealand white rabbit immunized with CRM197 on days 1, 15 and 28 assessed as final test-bleed measured on day 38 at 100 ug, im by ELISA relative to unadjuvanted control.
The target in test [4] is T2, Toll-like receptor 8 (Homo sapiens). Kind of test: Agonist activity at TLR8 in human whole blood assessed as up regulation of CD40 in CD 14+ monocytes after 16 hrs by eight-color flow cytometry.
Test [5] has the same target. Kind of test: Agonist activity at TLR8 in human PBMC assessed as induction of TNF-alpha after 12 hrs by cytokine/chemokine bead array assay.

In the case of `CCCCc1nc2c(N)nc3ccccc3c2n1Cc1cccc(CN)c1`, on Toll-like receptor 8, a half-maximal effect (EC50) was put at 0.014 µM.

On to `CCCCCc1cc2c(CCCCCN)cccc2nc1N`, for which the result (in test [1]; in test [2]; in test [3]; with Oryctolagus cuniculus; in test [4]; in test [5]) was Active.

Turning to `CCCCCc1cc2ccccc2nc1N`, the result in the test with Oryctolagus cuniculus was Active.

In the case of `CCCCc1cc2c(o1)c(N)nc1ccccc12`, the result in the test on Oryctolagus cuniculus was Active.

Consider `CCCCc1nc2c(N)nc3ccccc3c2n1Cc1ccc(CN)cc1`, for which the result in test [4] was Active.
